In PubChem BioAssay AID771 (SRMLSC, 2007):
Only a part is listed here, and it is no random draw. Calls of active or inactive are those of the source.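 How the source made its calls: active means growth inhibition above 90%, meaning viable cell count by imaging cut by more than 90% versus vehicle controls; inactive means growth inhibition below 90%.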

Experiment: HT29 colon tumor cell growth inhibition, primary screen, imaging, high content imaging, 48 h, CellTiter-Glo (AID 771)
Conditions: HCS imaging cell count, at 10 µM, active compounds read high

Row | Compound | growth inhibition
1 | CCN(CC)CC(O)COC(=O)C(O)(c1ccccc1)C1CCCCC1 (stereo unspecified) | inactive: 41.1%
